ChEMBL document CHEMBL1126089, “2-Alkynyl derivatives of adenosine and adenosine-5'-N-ethyluronamide as selective agonists at A2 adenosine receptors” (J Med Chem, 1992)

The chains behind the UniProt entries cited, without tags or fusion partners. Where a name states a change or a piece, a line headed by the entry shows the natural chain unless it says otherwise.
UniProt P29276: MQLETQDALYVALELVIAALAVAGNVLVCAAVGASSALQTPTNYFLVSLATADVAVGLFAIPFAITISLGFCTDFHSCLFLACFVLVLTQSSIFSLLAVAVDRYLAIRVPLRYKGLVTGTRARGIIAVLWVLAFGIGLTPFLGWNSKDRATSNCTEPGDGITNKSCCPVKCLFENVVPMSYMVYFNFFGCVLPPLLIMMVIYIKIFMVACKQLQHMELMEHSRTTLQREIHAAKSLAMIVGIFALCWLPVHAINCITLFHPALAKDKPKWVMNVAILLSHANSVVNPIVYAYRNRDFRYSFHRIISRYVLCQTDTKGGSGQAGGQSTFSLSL
UniProt P30543: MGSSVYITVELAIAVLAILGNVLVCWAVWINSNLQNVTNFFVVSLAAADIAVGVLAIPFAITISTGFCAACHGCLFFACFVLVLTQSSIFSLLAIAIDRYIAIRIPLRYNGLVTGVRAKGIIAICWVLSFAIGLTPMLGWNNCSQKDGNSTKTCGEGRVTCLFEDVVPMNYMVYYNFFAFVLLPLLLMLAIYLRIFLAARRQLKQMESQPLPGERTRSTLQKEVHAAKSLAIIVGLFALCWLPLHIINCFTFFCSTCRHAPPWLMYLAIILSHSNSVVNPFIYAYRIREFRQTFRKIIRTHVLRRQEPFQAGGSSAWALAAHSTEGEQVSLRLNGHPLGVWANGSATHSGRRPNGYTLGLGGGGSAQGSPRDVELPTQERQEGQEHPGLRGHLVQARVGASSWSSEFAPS

Target: Adenosine A2 receptor (Rattus norvegicus, UniProt P29276+P30543)

- Ki: 3.6 nM
Structure (SMILES): CCCCC#Cc1nc(N)c2ncn([C@@H]3O[C@H](CO)[C@@H](O)[C@H]3O)c2n1
